The record followed here is BindingDB's records for doi:10.1021/ja0466154 (Weizmann Institute of Science, 2004).

By UniProt entry, the sequences of proteins in these tests, tags left out. Where a name states a change or a piece, a line headed by the entry shows the natural chain unless it says otherwise.
UniProt O42275: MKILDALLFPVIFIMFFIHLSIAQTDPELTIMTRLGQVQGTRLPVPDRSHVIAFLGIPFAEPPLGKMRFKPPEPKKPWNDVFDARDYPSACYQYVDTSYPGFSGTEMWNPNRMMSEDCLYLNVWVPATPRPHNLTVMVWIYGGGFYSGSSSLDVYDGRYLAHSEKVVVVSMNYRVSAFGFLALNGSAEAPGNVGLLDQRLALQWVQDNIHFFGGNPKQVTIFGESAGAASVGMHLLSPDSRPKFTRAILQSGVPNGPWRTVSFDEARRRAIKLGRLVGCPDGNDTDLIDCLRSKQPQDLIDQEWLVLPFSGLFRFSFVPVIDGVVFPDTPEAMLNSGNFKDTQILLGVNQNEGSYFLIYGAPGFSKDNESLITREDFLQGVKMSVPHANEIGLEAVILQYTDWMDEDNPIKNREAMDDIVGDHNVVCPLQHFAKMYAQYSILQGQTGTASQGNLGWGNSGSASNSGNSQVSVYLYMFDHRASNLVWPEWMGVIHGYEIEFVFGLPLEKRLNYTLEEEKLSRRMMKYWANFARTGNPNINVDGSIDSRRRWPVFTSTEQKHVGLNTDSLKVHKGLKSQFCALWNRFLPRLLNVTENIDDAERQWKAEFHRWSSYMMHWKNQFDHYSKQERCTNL

The target of this assay is Acetylcholinesterase (Electrophorus electricus, UniProt O42275). Kind of assay: Enzyme Inhibition Assay. As to conditions: pH 8; 22 °C. As to the method: The cholinesterase assays were performed using colorimetric method reported by Ellman. […] Each inhibitor was evaluated at several concentrations in the range from 1 nM to 20 uM.

`COc1ccc2c3c1O[C@H]1C[C@@H](O)C=C[C@@]31CC[N+](CCCCCCCCN1C(=O)c3ccccc3C1=O)=C2` [(1S,12S,14R)-4-[8-(1,3-dioxo-2,3-dihydro-1H-isoindol-2-yl)octyl]-14-hydroxy-9-methoxy-11-oxa-4-azatetracyclo[8.6.1.0^{1,12}.0^{6,17}]heptadeca-4,6,8,10(17),15-pentaen-4-ium]: it took 11 nM to reach half-maximal inhibition (IC50).
